Test results published in US20200308309A1 (Novartis, published 2020).

Target: Recombinant marmoset IL-1β (marmoset, UniProt U3E018 117-268)
Assay: cell-based or functional assay

IL-6 prod. in dermal fibroblasts stimulated with recombinant marmoset IL-1β (18 pM), IC50, Exp. A (marmoset dermal fibroblasts by the column head): 0.174 nM
IL-6 prod. in dermal fibroblasts stimulated with recombinant marmoset IL-1β (18 pM), IC50, Exp. B (marmoset or human fibroblasts: column heads unclear): 0.364 nM
IL-6 prod. in dermal fibroblasts stimulated with recombinant marmoset IL-1β (18 pM), IC50, Exp. C (marmoset or human fibroblasts: column heads unclear): 0.22 nM
B1: bbmAb1 (bispecific antibody, human IgG1, kappa, lambda, L234A L235A)
heavy 1: not shown
light 1: not shown
heavy 2: not shown
light 2: EIVLTQSPDFQSVTPKEKVTITCRASQSIGSSLHWYQQKPDQSPKLLIKYASQSFSGVPSRFSGSGSGTDFTLTINSLEAEDAAAYYCHQSSSLPFTFGPGTKVDIKRTVAAPSVFIFPPSDEQLKSGTASVVCLLNNFYPREAKVQWKVDNALQSGNSQESVTEQDSKDSTYSLSSTLTLSKADYEKHKVYACEVTHQGLSSPVTKSFNRGEC
